Yeast mating assay 2: variants of the scFv Ab-91

The measurements come from Engelhart et al. 2022 (doi:10.1038/s41597-022-01779-4) through the FLAb antibody collection.

Target peptide (SARS-CoV-2 spike, HR2 region): PDVDLGDISGINAS

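The parent was found by panning a naive human phage display library on the peptide. The library (AAYL51) carries one to three amino acid substitutions per variant, with no insertions or deletions. Affinity was read by AlphaSeq, a pooled yeast mating assay with surface-displayed partners. Mating (16 h, 30 °C) was followed by selection of diploids and sequencing of their barcodes. The ratio of observed to expected reads was calibrated, replicate by replicate, on BCL2-family standards whose Kd was known from biolayer interferometry. Mating was done three times.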

Each scFv is VL, a 15-residue (Gly4Ser)3 linker, VH, as in the parent Ab-91, and differs from it in the CDRs of the heavy chain only.
VL: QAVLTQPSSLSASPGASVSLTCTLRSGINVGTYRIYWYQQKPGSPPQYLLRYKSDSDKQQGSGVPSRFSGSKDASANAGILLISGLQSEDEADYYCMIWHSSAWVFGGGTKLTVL
VH: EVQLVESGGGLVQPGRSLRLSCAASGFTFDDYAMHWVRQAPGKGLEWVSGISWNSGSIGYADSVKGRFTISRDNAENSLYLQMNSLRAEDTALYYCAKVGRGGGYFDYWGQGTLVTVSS

Each variant is given by its three heavy chain CDRs, as the data file delimits them; those of the parent are GFTFDDYAMH, GISWNSGSIGYADSVK, VGRGGGYFDY. The read-out is the apparent dissociation constant on a log10 scale (nM): the lower, the stronger. Averages over replicates are reported, and they cover detected replicates only. An entry "no signal" has no value in the source: the pair was not observed among the diploids in any replicate. This suggests poor binding but is not conclusive.

{"CDR-H1": "GFTFDDHAMH", "CDR-H2": "GISWNSGSIGYADSVK", "CDR-H3": "VGRKGGQFDY", "log10 Kd (nM), mean": "4.34", "replicates with signal": "1/3"}
{"CDR-H1": "GFTDDDYAMH", "CDR-H2": "GISWNSGSIGYANSVK", "CDR-H3": "NGRGGGYFDY", "log10 Kd (nM), mean": "no signal", "replicates with signal": "0/3"}
{"CDR-H1": "YFTFDDYAKH", "CDR-H2": "GISWQSGSIGYADSVK", "CDR-H3": "VGRGGGYFDY", "log10 Kd (nM), mean": "5.68", "replicates with signal": "3/3"}
{"CDR-H1": "GFTFSDYAMH", "CDR-H2": "GISWNSGSIGGADSVK", "CDR-H3": "VGRGDGYFDY", "log10 Kd (nM), mean": "2.98", "replicates with signal": "1/3"}
{"CDR-H1": "GFTFWDYAMH", "CDR-H2": "GPSWNSGSIGYADSVK", "CDR-H3": "VGKGGGYFDY", "log10 Kd (nM), mean": "no signal", "replicates with signal": "0/3"}
{"CDR-H1": "GFIFLDYAMH", "CDR-H2": "GKSWNSGSIGYADSVK", "CDR-H3": "VGRGGGYFDY", "log10 Kd (nM), mean": "no signal", "replicates with signal": "0/3"}
{"CDR-H1": "GFTFDDCAMH", "CDR-H2": "GISWNSVSIGYADSVK", "CDR-H3": "VGRGGRYFDY", "log10 Kd (nM), mean": "no signal", "replicates with signal": "0/3"}
{"CDR-H1": "GFTTDDYAFH", "CDR-H2": "GISWNSGSIGYADSGK", "CDR-H3": "VGRGGGYFDY", "log10 Kd (nM), mean": "4.61", "replicates with signal": "1/3"}
{"CDR-H1": "GFTFDDYAHH", "CDR-H2": "GISWNSVSIGYADSVK", "CDR-H3": "VGAGGGYFDY", "log10 Kd (nM), mean": "4.60", "replicates with signal": "2/3"}
{"CDR-H1": "GFTFDDYAMH", "CDR-H2": "GISWNSGSIGYADSVK", "CDR-H3": "FGRGGEKFDY", "log10 Kd (nM), mean": "4.81", "replicates with signal": "1/3"}
{"CDR-H1": "VFTFDDYAME", "CDR-H2": "GISWNSGSITYADSVK", "CDR-H3": "VGRGGGYFDY", "log10 Kd (nM), mean": "4.95", "replicates with signal": "1/3"}
{"CDR-H1": "GFTFQDYAMH", "CDR-H2": "GISWNSGSIGYCDSVK", "CDR-H3": "VGRGGGYFYY", "log10 Kd (nM), mean": "1.89", "replicates with signal": "3/3"}
{"CDR-H1": "GFTFDDYAFF", "CDR-H2": "SISWNSGSIGYADSVK", "CDR-H3": "VGRGGGYFDY", "log10 Kd (nM), mean": "3.98", "replicates with signal": "1/3"}
{"CDR-H1": "GFTFDDYAMH", "CDR-H2": "GISWNSGWIGYADSVK", "CDR-H3": "RGRGGGYFDL", "log10 Kd (nM), mean": "no signal", "replicates with signal": "0/3"}
{"CDR-H1": "GFTFDDYAMH", "CDR-H2": "WIIWNSGSIGYTDSVK", "CDR-H3": "VGRGGGYFDY", "log10 Kd (nM), mean": "no signal", "replicates with signal": "0/3"}
{"CDR-H1": "EFTFDDYAMH", "CDR-H2": "RISWNSGSIGYADSVK", "CDR-H3": "VNRGGGYFDY", "log10 Kd (nM), mean": "no signal", "replicates with signal": "0/3"}
{"CDR-H1": "GFTFDDYAMH", "CDR-H2": "GISWNSGSIGYNDSVK", "CDR-H3": "VGRGGGYIDF", "log10 Kd (nM), mean": "5.23", "replicates with signal": "2/3"}
{"CDR-H1": "GFTFDDYAVH", "CDR-H2": "GISWNSGSICYADSVK", "CDR-H3": "VQRGGGYFDY", "log10 Kd (nM), mean": "5.19", "replicates with signal": "2/3"}
{"CDR-H1": "GFTFDDYAMH", "CDR-H2": "GISWVHGSIDYADSVK", "CDR-H3": "VGRGGGYFDY", "log10 Kd (nM), mean": "no signal", "replicates with signal": "0/3"}
{"CDR-H1": "GFTFDDYAMH", "CDR-H2": "GISWNSGSIGYLISVV", "CDR-H3": "VGRGGGYFDY", "log10 Kd (nM), mean": "5.02", "replicates with signal": "1/3"}
{"CDR-H1": "GFTFDDNAMH", "CDR-H2": "MISWNSGSIGSADSVK", "CDR-H3": "VGRGGGYFDY", "log10 Kd (nM), mean": "no signal", "replicates with signal": "0/3"}
{"CDR-H1": "GFTFDDYCMN", "CDR-H2": "GISWASGSIGYADSVK", "CDR-H3": "VGRGGGYFDY", "log10 Kd (nM), mean": "3.21", "replicates with signal": "1/3"}
{"CDR-H1": "GFTFDDYAMH", "CDR-H2": "GISINSGPIAYADSVK", "CDR-H3": "VGRGGGYFDY", "log10 Kd (nM), mean": "no signal", "replicates with signal": "0/3"}
{"CDR-H1": "GFTFDDYNMH", "CDR-H2": "VISWNSGSIGYADSVK", "CDR-H3": "VGRGGGYFDC", "log10 Kd (nM), mean": "no signal", "replicates with signal": "0/3"}
{"CDR-H1": "GNTFDDYAMH", "CDR-H2": "GISWNSGSIMYADSVK", "CDR-H3": "VGRGVGYFDY", "log10 Kd (nM), mean": "4.97", "replicates with signal": "2/3"}
{"CDR-H1": "GFTFDDYAMH", "CDR-H2": "GISWNSGSIFYADSVK", "CDR-H3": "INRGGGYFDY", "log10 Kd (nM), mean": "3.25", "replicates with signal": "1/3"}
{"CDR-H1": "GFTFDDYVMH", "CDR-H2": "GISWNSGSIGYDDSVK", "CDR-H3": "VGRCGGYFDY", "log10 Kd (nM), mean": "no signal", "replicates with signal": "0/3"}
{"CDR-H1": "GFTFDDYAMH", "CDR-H2": "GMSQNSGSIGYADSVK", "CDR-H3": "VGRGGGYFDY", "log10 Kd (nM), mean": "3.61", "replicates with signal": "3/3"}
{"CDR-H1": "GFTFDDYAMH", "CDR-H2": "SIPWNSGLIGYADSVK", "CDR-H3": "VGRGGGYFDY", "log10 Kd (nM), mean": "no signal", "replicates with signal": "0/3"}

The first 5 variants above that were never detected:

CDR-H1,CDR-H2,CDR-H3,"log10 Kd (nM), mean",replicates with signal
GFTDDDYAMH,GISWNSGSIGYANSVK,NGRGGGYFDY,no signal,0/3
GFTFWDYAMH,GPSWNSGSIGYADSVK,VGKGGGYFDY,no signal,0/3
GFIFLDYAMH,GKSWNSGSIGYADSVK,VGRGGGYFDY,no signal,0/3
GFTFDDCAMH,GISWNSVSIGYADSVK,VGRGGRYFDY,no signal,0/3
GFTFDDYAMH,GISWNSGWIGYADSVK,RGRGGGYFDL,no signal,0/3

In this assay the parent's reference entry averaged 1.86; its copy inside this library read 0.88. Empty control strains, which show no peptide, gave a signal in 21% of pairings with library AAYL51; the median was 4.54 and 95% of these signals were weaker than 3.26. No background was subtracted.